# Assay results: PubChem BioAssay AID602346 (Broad Institute, 2012)
# The entries are a selection whose mix differs from that of the whole data set. Some results for these compounds are left out of this collection, so the calls shown say nothing about other tests. Calls of active or inactive are those of the source. No stated cut-off is given here; in the data, active means inhibition above about 50% (passing the limit was not always enough); inconclusive means no clear call, values can overlap the other calls; inactive means below about 31%.
# Assay: blockers of Vif multimerization in cells – imaging, HEK293T, single point, primary screen (AID 602346)
# Conditions: Vif self-association by quenched fluorescence, 24 h, at 7.49 µM, active compounds read high
row,SMILES,inhibition
1,CC(C)Oc1ccc(C(=O)NCC2(N(C)C)CCCCC2)cc1,inactive: 1.37%
2,O=C(OCCN1CCCC1)C(O)(c1ccccc1)c1ccccc1,inactive: 1.11%
3,CN(C)c1cccc(C(=O)NCC2(N(C)C)CCCCC2)c1,inactive: 2.69%
4,C=C(C)C#CC(O)(C(=O)OC1CCN(C)CC1)c1ccccc1 (centres undefined),inactive: -2.37%
5,COc1ccc(Br)c(C(=O)NCC2(N3CCCCC3)CCCCC2)c1,inactive: -5.49%
6,O=C(OC1CN2CCC1CC2)C(CO)(c1ccccc1)c1ccccc1 (centres undefined),inactive: -2.32%
7,O=C(NCC1(N2CCCCC2)CCCCC1)c1cccc(Cl)c1,inactive: -3.14%
8,COc1cccc(C(=O)NCC2(N3CCCCC3)CCCCC2)c1,inactive: 5.98%
9,COc1ccc(Cl)cc1C(=O)NCC1(N(C)C)CCCCC1,inactive: -4.26%
10,CN(C)C1(CNC(=O)c2ccc(Br)cc2)CCCCC1,inactive: 2.36%
11,COc1ccc(C(=O)NCC2(N(C)C)CCCCC2)cc1,inactive: 4.08%
12,Cc1cc(C(=O)NCC2(N3CCCCC3)CCCCC2)ccc1[N+](=O)[O-],inactive: -9.72%
13,CCN1CCCC(OC(=O)C2(O)c3ccccc3C=Cc3ccccc32)C1 (centres undefined),inactive: 4.26%
14,O=C(NCC1(N2CCCCC2)CCCCC1)c1cccc(Br)c1,inactive: -3.59%
15,C=CCN1CCN(CCOC(=O)C(O)(c2ccccc2)c2ccccc2)CC1,inactive: 1.97%
16,O=C(NCC1(N2CCCCC2)CCCCC1)c1cc(F)c(F)cc1Cl,inactive: 5.02%
17,Cc1ccccc1C(=O)NCC1(N2CCCCC2)CCCCC1,inactive: 0.813%
18,CN(C)C1CCCC1OC(=O)C(O)(c1ccccc1)c1ccccc1 (centres undefined),inactive: 11.9%
19,CN(C)c1ccc(C(=O)NCC2(N(C)C)CCCCC2)cc1,inactive: 4.3%
20,Cc1ccc(C(=O)NCC2(N3CCCCC3)CCCCC2)cc1,inactive: -1.85%
21,CCN(CC)CC(C)C(C)OC(=O)C(O)(c1ccccc1)c1ccccc1 (centres undefined),inactive: 5%
22,CC(C)N1C(=O)CC2(CCN(CCOC(=O)C(O)(c3ccccc3)c3ccccc3)CC2)C1=O,inactive: -0.947%
23,CN1[C@@H]2CC[C@H]1CC(OC(=O)C(O)(c1ccccc1)c1ccccc1)C2 (some centres undefined),inactive: 9.4%
24,O=C(NCC1(N2CCCCC2)CCCCC1)c1cc([N+](=O)[O-])ccc1Cl,inactive: 7.81%
